Assay results taken from patent US20170151264A1, “COMBINATION” (Almirall, S.A., priority 2014, published 2017).

Amino acid sequences for entries named in this document (tags omitted). A change or cut given only in a name is not applied to a line headed by its entry.
UniProt O00329: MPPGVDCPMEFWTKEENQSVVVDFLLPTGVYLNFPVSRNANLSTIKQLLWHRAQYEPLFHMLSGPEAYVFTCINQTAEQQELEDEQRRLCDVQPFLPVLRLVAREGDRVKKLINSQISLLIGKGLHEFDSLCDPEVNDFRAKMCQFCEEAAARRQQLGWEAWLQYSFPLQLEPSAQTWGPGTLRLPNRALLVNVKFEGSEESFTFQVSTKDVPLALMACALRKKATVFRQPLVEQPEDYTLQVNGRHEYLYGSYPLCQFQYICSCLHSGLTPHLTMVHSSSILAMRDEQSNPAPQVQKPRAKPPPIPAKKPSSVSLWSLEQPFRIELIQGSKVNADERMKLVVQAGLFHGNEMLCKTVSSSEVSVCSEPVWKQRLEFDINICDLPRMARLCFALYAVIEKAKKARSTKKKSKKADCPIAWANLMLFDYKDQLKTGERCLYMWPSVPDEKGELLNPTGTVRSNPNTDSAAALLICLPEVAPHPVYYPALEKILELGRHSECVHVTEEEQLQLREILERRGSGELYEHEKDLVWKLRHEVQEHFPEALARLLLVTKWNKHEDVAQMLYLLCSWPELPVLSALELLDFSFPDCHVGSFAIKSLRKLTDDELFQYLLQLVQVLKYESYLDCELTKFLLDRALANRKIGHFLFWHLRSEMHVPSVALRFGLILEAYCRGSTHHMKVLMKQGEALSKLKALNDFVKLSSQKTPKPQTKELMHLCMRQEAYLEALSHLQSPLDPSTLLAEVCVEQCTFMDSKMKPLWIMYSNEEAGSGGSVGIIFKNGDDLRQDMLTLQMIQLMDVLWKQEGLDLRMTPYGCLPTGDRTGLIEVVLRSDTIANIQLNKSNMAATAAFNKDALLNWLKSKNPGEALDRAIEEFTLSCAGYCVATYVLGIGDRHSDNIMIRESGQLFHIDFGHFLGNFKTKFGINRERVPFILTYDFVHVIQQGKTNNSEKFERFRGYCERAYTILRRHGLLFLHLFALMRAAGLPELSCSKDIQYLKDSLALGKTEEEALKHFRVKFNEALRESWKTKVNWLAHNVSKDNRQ

Target: PI3K p110δ (Homo sapiens, UniProt O00329)
Assay: Enzymatic potency by homogenous time-resolved fluorescence
Type: biochemical
Settings: recombinant human isoform, pre-incubation 30 min

## C[C@H](Nc1ncnc(N)c1C#N)c1nn2ccc(C#N)c2c(=O)n1-c1ccccc1 [LAS191954, (S)-2-(1-(6-amino-5-cyanopyrimidin-4-ylamino)ethyl)-4-oxo-3-phenyl-3,4-dihydropyrrolo[1,2-f][1,2,4]triazine-5-carbonitrile]
  IC50: 2.57 nM
